Reference: patent US8980845B2, “Biotechnological production of cyanophycin dipeptides” (Westfälische Wilhelms-Universität Münster, priority 2008, dated 2015)

What was measured:
[1] = test system: mammalian, avian and fish gut flora
[2] = test system: CGP degrading axenic cultures

Substance: multi-L-arginyl-poly-[L-aspartic acid] [CGP]
- CGP degradation Anoxic (Strain 47): ±
- CGP degradation Oxic (Strain 47): +
- CGP degradation Anoxic (Strain 38): ±
- CGP degradation Oxic (Strain 38): +
- CGP degradation Anoxic (Strain 31): ±
- CGP degradation Oxic (Strain 31): +
- CGP degradation in tubes inoculated with gut flora samples [1]: complete CGP degradation
- Degradation products of CGP (HPLC) [2]: constituting dipeptides
- Incubation periods required for the anaerobic CGP degradation by axenic cultures [2]: 24 to 170 h
- CGP degradation Anoxic (Strain 15): ±
- CGP degradation Oxic (Strain 15): +
